Among the data in the Kinase Knowledgebase extract (Sharma et al. 2016) are IC50 values, retold here.

Protein sequences, listed by entry. Tags and fused reporters are not part of them.
UniProt P00533, whole entry, looked up: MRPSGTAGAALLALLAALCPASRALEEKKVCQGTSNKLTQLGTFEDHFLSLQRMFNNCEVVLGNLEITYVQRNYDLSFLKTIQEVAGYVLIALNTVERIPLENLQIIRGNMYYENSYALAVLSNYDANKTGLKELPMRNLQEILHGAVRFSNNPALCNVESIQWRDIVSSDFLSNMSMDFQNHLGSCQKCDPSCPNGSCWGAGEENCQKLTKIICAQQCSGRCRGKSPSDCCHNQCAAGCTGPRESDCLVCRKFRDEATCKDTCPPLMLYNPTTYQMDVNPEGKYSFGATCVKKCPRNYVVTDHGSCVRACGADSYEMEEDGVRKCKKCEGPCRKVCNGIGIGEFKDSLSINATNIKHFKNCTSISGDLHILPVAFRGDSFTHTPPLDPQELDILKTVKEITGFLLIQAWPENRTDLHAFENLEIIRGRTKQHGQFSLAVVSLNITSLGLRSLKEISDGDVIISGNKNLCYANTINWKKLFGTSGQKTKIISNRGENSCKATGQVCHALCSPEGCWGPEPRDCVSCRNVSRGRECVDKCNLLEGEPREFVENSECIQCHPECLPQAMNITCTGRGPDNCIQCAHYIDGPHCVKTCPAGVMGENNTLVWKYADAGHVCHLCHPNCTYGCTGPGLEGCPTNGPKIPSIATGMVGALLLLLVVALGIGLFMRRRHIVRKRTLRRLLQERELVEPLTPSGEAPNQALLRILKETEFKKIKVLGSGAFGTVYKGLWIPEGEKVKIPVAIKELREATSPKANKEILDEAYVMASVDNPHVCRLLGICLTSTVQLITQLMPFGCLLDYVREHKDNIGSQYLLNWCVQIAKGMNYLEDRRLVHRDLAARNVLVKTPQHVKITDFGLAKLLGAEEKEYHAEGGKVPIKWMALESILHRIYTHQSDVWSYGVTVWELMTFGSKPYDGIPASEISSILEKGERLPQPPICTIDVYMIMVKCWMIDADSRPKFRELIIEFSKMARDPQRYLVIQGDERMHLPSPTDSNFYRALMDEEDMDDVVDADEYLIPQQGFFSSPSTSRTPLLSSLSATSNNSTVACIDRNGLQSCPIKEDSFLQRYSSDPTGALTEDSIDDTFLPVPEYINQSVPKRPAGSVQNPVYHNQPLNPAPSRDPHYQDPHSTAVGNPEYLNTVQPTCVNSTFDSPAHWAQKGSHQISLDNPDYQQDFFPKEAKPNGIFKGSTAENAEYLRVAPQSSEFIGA

The assay deals with EGFR (human) (UniProt P00533).

Broadly, the IC50 is the midpoint of a concentration-inhibition curve. As to `COc1cc2ncnc(Nc3cccc(Cl)c3)c2cc1OC`, the IC50 was determined as 6.3 nM.
